Measured values from ChEMBL document CHEMBL3393014, “Discovery of 5-(1H-indol-5-yl)-1,3,4-thiadiazol-2-amines as potent PIM inhibitors” (Bioorg Med Chem Lett, 2015).

By UniProt entry, the sequences of proteins in these tests, tags left out. Where a name states a change or a piece, a line headed by the entry shows the natural chain unless it says otherwise.
UniProt Q9P1W9: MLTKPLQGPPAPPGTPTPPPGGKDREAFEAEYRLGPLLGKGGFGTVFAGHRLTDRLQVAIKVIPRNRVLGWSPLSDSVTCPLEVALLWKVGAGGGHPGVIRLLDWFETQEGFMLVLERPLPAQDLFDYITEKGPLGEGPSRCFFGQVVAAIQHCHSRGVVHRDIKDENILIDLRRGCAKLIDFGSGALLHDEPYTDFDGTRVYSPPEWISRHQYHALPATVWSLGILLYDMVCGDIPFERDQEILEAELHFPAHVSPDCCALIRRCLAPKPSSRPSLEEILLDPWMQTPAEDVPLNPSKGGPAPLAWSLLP

Experiments:
[1] = molecular target: Serine/threonine-protein kinase pim-3 (Homo sapiens, UniProt Q86V86); assay: Inhibition of full length recombinant PIM3 (unknown origin) using biotinylated-BAD peptide as substrate assessed as phosphorylation at serine 112 after 45 mins by HTRF method
[2] = molecular target: Serine/threonine-protein kinase pim-2 (Homo sapiens, UniProt Q9P1W9); assay: Inhibition of PIM2 in human U2OS cells assessed as phosphorylation of BAD; assay type: cell-based

IC50 [1] [µM] | IC50 [2] [µM] | Structure (SMILES)
0.002 | – | CC(C)Oc1cccc(-c2c[nH]c3ccc(-c4nnc(N)s4)cc23)n1
– | 6.9 | Nc1nnc(-c2ccc3[nH]cc(-c4cccc(OC5CCCC5)n4)c3c2)s1
